For one series, the target named is nNOS (Rattus norvegicus, UniProt P29476). The following applies: read-out: nNOS Ki, 25° C., pH 7.4, initial rate conditions, duplicates agreed within ±5%.
Another series concerns N=C(N)NCCC[C@H](N)C(=O)O. As to the kind of experiment: purified protein, by the assay type. The following applies: other: Km determined in the absence of inhibitor, iNOS; 25.0 °C.

In patent US6127420A, “L-N^5 -(1-imino-3-alkenyl) ornithine and related compounds and use thereof” (priority 1998, dated 2000) one finds Ki and Km data, which are given here for two molecules.

As to `CC(=N)NCCC[C@H](N)C(=O)O` [L-NIO], the Ki on nNOS came out at 1700 nM.

With iNOS (Mus musculus), the Km in the series on N=C(N)NCCC[C@H](N)C(=O)O is 12.5 µM.
